Amino acid sequences for entries named in this document (tags omitted).
UniProt Q07820, whole entry, looked up: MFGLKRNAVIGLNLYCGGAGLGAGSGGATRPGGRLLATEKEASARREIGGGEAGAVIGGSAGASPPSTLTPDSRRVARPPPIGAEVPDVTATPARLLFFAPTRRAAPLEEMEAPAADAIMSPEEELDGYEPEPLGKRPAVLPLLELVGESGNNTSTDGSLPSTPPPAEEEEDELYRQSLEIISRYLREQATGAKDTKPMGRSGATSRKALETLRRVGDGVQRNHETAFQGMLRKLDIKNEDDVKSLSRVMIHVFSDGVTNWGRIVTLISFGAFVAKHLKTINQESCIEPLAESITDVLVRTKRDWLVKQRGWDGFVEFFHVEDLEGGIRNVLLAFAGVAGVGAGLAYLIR

According to patent US11142554B2 (MASSACHUSETTS INSTITUTE OF TECHNOLOGY, priority 2015, dated 2021):

Molecular target: Mcl-1 (Homo sapiens, UniProt Q07820)
Assay: IC50%(nM)

RPEIWMTQGLRRLGDEINAYYAR [MS1]
IC50: ~2.2 µM
